# Measurements taken from ChEMBL document CHEMBL5518200, “Heterocyclic-Modified Imidazoquinoline Derivatives: Selective TLR7 Agonist Regulates Tumor Microenvironment against Melanoma” (J Med Chem, 2024).
# Protein sequences, listed by entry. Tags and fused reporters are not part of them.
# UniProt O00206, whole entry: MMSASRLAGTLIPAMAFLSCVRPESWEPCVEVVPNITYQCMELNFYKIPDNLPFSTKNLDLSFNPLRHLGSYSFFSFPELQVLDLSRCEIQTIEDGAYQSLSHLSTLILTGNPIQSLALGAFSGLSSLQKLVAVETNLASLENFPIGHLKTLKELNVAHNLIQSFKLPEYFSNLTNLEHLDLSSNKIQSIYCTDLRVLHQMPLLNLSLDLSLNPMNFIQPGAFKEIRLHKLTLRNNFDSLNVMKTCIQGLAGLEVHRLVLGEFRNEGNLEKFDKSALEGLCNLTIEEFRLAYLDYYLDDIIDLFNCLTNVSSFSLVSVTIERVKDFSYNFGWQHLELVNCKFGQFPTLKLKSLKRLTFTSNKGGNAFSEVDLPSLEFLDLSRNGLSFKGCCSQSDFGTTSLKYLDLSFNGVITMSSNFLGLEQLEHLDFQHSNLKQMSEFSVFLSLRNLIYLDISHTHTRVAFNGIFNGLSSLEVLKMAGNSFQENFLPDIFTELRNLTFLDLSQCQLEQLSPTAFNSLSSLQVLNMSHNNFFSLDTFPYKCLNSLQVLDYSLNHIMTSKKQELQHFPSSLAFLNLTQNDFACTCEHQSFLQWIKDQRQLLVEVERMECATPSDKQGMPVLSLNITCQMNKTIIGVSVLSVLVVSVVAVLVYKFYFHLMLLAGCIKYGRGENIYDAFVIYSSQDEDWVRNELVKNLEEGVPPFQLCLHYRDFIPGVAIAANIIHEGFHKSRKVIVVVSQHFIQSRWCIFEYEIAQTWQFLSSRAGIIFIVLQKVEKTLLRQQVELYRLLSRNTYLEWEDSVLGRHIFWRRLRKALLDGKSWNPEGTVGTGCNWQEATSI
# UniProt O60603, whole entry: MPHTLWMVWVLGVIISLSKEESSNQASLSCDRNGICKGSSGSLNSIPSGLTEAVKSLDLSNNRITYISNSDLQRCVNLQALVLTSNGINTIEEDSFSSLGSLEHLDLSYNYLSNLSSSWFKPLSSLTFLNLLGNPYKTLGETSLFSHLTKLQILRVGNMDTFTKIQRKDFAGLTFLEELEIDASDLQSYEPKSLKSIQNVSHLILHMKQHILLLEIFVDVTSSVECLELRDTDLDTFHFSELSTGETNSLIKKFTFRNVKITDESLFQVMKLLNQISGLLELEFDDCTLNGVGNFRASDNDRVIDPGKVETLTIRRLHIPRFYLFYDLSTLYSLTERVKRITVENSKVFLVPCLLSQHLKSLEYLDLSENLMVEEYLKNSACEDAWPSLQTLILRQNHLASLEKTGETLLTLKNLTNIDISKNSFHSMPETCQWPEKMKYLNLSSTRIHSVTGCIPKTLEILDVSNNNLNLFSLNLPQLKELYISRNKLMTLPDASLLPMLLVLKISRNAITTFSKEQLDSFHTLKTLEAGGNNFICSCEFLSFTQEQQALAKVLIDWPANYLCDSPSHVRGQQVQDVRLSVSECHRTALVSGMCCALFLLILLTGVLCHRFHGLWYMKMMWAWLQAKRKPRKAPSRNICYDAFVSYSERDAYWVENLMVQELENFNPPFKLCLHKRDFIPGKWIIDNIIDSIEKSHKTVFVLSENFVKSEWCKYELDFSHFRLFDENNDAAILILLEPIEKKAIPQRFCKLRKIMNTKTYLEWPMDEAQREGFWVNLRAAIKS
# Activity calls are given as the source filed them. The calls are words filed in the database; no cut-off is given here.
# Experiments:
# Format in all cases: cell-based
# [1] = target: T1, Toll-like receptor 7 (Mus musculus) (UniProt P58681); assay: Agonist activity at TLR7 in mouse BMDC cells assessed as activation of TLR7 downstream signaling pathway by measuring increase in p65 phosphorylation at 1 uM measured after 0 to 120 mins by Western blot analysis; conditions: filed as agonist, time 0-120 min
# T1 sequence (whole entry): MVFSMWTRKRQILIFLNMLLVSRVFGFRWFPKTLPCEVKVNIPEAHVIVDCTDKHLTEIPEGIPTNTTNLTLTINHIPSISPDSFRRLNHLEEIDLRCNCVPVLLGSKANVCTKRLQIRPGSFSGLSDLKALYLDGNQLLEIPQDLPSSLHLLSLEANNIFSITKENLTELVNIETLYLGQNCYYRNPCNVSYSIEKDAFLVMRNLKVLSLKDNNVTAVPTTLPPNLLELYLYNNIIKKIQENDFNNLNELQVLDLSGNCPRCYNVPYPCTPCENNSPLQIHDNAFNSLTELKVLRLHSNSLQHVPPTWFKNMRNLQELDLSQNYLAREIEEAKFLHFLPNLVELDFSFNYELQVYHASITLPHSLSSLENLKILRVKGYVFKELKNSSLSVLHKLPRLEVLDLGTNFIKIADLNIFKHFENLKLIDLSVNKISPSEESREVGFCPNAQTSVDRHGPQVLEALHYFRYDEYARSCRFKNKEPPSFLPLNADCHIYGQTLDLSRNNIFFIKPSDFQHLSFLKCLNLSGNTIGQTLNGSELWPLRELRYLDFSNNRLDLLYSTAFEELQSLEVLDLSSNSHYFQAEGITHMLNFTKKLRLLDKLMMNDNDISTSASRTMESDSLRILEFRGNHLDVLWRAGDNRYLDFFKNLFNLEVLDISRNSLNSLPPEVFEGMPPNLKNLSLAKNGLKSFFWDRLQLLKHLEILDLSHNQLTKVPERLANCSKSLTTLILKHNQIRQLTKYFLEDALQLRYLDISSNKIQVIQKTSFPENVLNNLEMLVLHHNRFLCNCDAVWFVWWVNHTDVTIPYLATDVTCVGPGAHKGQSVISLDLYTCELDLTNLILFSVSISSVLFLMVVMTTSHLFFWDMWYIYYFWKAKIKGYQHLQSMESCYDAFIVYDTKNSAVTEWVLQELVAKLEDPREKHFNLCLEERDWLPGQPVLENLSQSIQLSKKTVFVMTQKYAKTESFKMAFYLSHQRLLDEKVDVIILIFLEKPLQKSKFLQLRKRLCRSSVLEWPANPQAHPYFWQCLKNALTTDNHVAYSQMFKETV
# [2] = target: T1, Toll-like receptor 7 (Mus musculus); assay: Agonist activity at TLR7 in mouse BMDC cells assessed as increase in TLR7-MyD88 interaction by measuring coimmunoprecipitation at 1 uM by immunoblot analysis; conditions: filed as agonist, time 0-120 min
# [3] = target: T1, Toll-like receptor 7 (Mus musculus); assay: Agonist activity at TLR7 in mouse BMDC cells assessed as activation of TLR7 downstream signaling pathway by measuring increase in JNK phosphorylation at 1 uM measured after 0 to 120 mins by Western blot analysis; conditions: filed as agonist, time 0-120 min
# [4] = target: T1, Toll-like receptor 7 (Mus musculus); assay: Agonist activity at TLR7 in mouse BMDC cells assessed as activation of TLR7 downstream signaling pathway by measuring increase in p38 phosphorylation at 1 uM measured after 0 to 120 mins by Western blot analysis; conditions: filed as agonist, time 0-120 min
# [5] = target: T1, Toll-like receptor 7 (Mus musculus); assay: Agonist activity at TLR7 in mouse BMDC cells assessed as activation of TLR7 downstream signaling pathway by measuring increase in IRF7 phosphorylation at 1 uM measured after 0 to 24 hrs by Western blot analysis; conditions: filed as agonist, time 0-24 hrs
# [6] = target: T2, Toll-like receptor 3 (Homo sapiens) (UniProt O15455); assay: Agonist activity at TLR3 in HEK-Blue hTLR3 cells expressing NF-kappaB/AP-1 inducible SEAP assessed as increase in SEAP activity at 0.05 to 100 uM incubated for 24 hrs by QUANTI-Blue assay; conditions: dose 0.05-100 µM
# T2 sequence (whole entry): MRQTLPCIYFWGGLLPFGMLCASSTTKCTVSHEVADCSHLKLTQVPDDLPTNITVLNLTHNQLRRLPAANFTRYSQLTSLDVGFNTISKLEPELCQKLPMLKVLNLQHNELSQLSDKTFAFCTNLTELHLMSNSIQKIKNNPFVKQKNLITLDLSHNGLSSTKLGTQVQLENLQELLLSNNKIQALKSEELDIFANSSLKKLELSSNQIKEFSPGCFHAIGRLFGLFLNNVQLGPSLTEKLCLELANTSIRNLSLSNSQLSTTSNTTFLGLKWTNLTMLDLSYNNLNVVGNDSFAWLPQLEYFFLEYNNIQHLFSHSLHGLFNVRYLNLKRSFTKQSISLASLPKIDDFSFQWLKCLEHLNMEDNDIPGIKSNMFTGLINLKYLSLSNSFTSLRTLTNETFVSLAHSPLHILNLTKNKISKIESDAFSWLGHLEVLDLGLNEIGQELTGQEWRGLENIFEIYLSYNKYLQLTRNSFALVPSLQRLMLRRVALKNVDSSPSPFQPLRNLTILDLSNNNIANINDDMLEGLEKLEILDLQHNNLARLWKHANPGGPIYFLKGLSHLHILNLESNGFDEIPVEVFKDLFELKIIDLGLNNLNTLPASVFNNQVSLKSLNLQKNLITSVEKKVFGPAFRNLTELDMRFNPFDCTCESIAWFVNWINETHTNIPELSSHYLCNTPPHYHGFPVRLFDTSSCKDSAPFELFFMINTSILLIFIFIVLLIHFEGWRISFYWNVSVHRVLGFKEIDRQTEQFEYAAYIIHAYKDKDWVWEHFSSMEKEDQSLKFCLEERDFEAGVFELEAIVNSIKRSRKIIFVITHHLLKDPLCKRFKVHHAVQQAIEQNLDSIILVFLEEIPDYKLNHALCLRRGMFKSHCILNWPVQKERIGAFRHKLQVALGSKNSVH
# [7] = target: T1, Toll-like receptor 7 (Mus musculus); assay: Agonist activity at TLR7 in mouse BMDC cells assessed as activation of TLR7 downstream signaling pathway by measuring increase in ERK1/2 phosphorylation at 1 uM measured after 0 to 120 mins by Western blot analysis; conditions: filed as agonist, time 0-120 min
# [8] = target: T1, Toll-like receptor 7 (Mus musculus); assay: Agonist activity at TLR7 in mouse BMDC cells assessed as activation of TLR7 downstream signaling pathway by measuring increase in IKK alpha/beta phosphorylation at 1 uM measured after 0 to 120 mins by Western blot analysis; conditions: filed as agonist, time 0-120 min
# [9] = target: Toll-like receptor 4 (Homo sapiens) (UniProt O00206); assay: Agonist activity at TLR4 in HEK-Blue hTLR4 cells expressing NF-kappaB/AP-1 inducible SEAP assessed as increase in SEAP activity at 0.05 to 100 uM incubated for 24 hrs by QUANTI-Blue assay; conditions: dose 0.05-100 µM
# [10] = target: Toll-like receptor 2 (Homo sapiens) (UniProt O60603); assay: Agonist activity at TLR2 in HEK-Blue hTLR2 cells expressing NF-kappaB/AP-1 inducible SEAP assessed as increase in SEAP activity at 0.05 to 100 uM incubated for 24 hrs by QUANTI-Blue assay; conditions: dose 0.05-100 µM
structure (smiles),measurement,setting,value
CCCCc1nc2c(N)nc3ccccc3c2n1CC1CCOC1 (stereo not given),Activity,[1],Active
same,Activity,[2],Dose-Dependent Effect
same,Activity,[3],Active
same,Activity,[4],Active
same,Activity,[5],Active
same,Activity,[6],inactive
same,Activity,[7],Active
same,Activity,[8],Active
same,Activity,[9],inactive
same,Activity,[10],inactive
